The values below come from PubChem BioAssay AID504652 (National Center for Advancing Translational Sciences (NCATS), 2011).

Protein sequences, listed by entry. Tags and fused reporters are not part of them.
UniProt P21728, whole entry: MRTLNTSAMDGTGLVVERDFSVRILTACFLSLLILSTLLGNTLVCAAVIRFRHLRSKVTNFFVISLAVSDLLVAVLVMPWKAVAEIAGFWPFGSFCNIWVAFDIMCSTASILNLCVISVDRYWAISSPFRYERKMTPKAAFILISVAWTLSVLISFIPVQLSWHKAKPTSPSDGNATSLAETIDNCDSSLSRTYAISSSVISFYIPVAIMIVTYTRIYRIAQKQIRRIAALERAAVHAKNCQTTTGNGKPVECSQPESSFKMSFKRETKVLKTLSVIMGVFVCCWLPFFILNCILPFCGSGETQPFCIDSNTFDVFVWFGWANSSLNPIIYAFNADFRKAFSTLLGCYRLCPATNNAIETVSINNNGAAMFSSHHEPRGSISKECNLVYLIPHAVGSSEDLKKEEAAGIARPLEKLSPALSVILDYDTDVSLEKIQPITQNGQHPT

Only a part is listed here, and it is no random draw. Activity calls are given as the source filed them. No stated cut-off is given here; in the data, active means activity change below about -30%; inactive means the rest.
On the % scale 0 is the no-effect control and ±100 the full control effect.

This assay deals with D(1A) dopamine receptor (Homo sapiens) (UniProt P21728). Put plainly: Antagonist of Human D 1 Dopamine Receptor: qHTS. Conditions: HEK293 TREx D1 cells, calcium flux, dopamine EC80; at 10 µM; hits give low values. From the text: Dopamine receptors (DARs) are involved in the etiology and/or therapy of a number of neuropsychiatric and endocrine disorders. For instance, all receptor-based antiparkinsonian drugs work via stimulating the […] DAR subtype whereas all FDA-approved antipsychotic agents are antagonists of this receptor. […] There are three different types of allosteric modulators that we are seeking, two of which will stimulate or augment receptor signaling, allosteric agonists and potentiators, while the third, allosteric antagonists, will attenuate receptor signaling. The present primary screening assay measures compound antagonism after an EC80 addition of dopamine by tracking calcium flux in a […], inducible Hek293 Trex D1 cell line. NIH Chemical Genomics Center [NCGC] NIH Molecular Libraries Probe Centers Network [MLPCN] MLPCN Grant: NS064831-01 Assay Submitter (PI): David Sibley
Freshly passaged cells are plated in 1536 well black, clear bottom plates at a density of 4000 cells/well in 3 ul of complete media containing 1x tetracycline inducer. After an overnight incubation at 30 C in 5% CO2, cells are loaded with 2 ul of the no wash Calcium Assay Kit (ABD Bioquest) and incubated at room temperature for 30 to 90 minutes. Agonist read: A 10 cycle (1 second/cycle) baseline measurement is taken and then the FDSS online 1536 pintool delivers 23 nl of compound library (as well as dopamine controls) to the plate. The plate is measured for kinetically at 1 cycle/sec for 180 seconds. Following the 180 second read, 1 ul of an EC80 (negative modulation assay) is delivered by an onboard pipette head. Measurements are taken kinetically for an additional 180 seconds.
`CC1=NCCc2c1[nH]c1ccccc21.O=[N+]([O-])c1cc([N+](=O)[O-])c(O)c([N+](=O)[O-])c1`: the activity change, negative = inhibition is inactive: 6.1%.

Regarding `COc1ccccc1OP(C)(=O)Nc1cccc(Br)c1` (stereo not given), the activity change, negative = inhibition is inactive: -5.43%.

`CCOC(=O)c1ccc(NP(C)(=O)Oc2cc(C)cc(C)c2)cc1` (stereo not given): the activity change, negative = inhibition was inactive: -2.42%.

As to `Cc1cc(C)cc(OP(C)(=O)Nc2ccc(C)cc2C)c1` (stereo not given), the activity change, negative = inhibition was inactive: -9.49%.

For the compound `Cc1ccc(C)c(NP(C)(=O)Oc2ccccc2)c1` (stereo not given), the activity change, negative = inhibition is inactive: -24.6%.

Regarding `CP(=O)(Nc1cccc(Br)c1)Oc1ccccc1` (stereo not given), the activity change, negative = inhibition was inactive: -7.16%.

In the case of `Cc1cc(C)cc(OP(C)(=O)Nc2ccccn2)c1` (stereo not given), the activity change, negative = inhibition is inactive: 8.45%.

As to `O=[N+]([O-])c1cc([N+](=O)[O-])c(-n2nnc3ccccc32)c([N+](=O)[O-])c1`, the activity change, negative = inhibition was inactive: -9.57%.

As for `Cc1nc2ccc3ccccc3c2s1.O=[N+]([O-])c1cc([N+](=O)[O-])c(O)c([N+](=O)[O-])c1`, the activity change, negative = inhibition was inactive: -4.93%.

Take `O=[N+]([O-])c1cc([N+](=O)[O-])c(Nc2nnnn2CCO)c([N+](=O)[O-])c1`: the activity change, negative = inhibition is inactive: -18.4%.

On to `CC1=C2N=C(C=C3N=C(C(C)=C4[N-][C@@](C)([C@@H]5N=C1[C@](C)(CCC(=O)NC[C@@H](C)OP(=O)([O-])O[C@H]1[C@@H](O)[C@@H](n6cnc7cc(C)c(C)cc76)O[C@@H]1CO)[C@H]5CC(N)=O)[C@@](C)(CC(N)=O)[C@@H]4CCC(N)=O)[C@@](C)(CC(N)=O)[C@@H]3CCC(N)=O)C(C)(C)[C@@H]2CCC(N)=O.[C-]#N.[Co+3]`, for which the activity change, negative = inhibition is inactive: -15.6%.

In the case of `CN1CCCCC1COC(=O)C1(O)c2ccccc2CCc2ccccc21` (stereo not given), the activity change, negative = inhibition is inactive: -7.73%.

Turning to `COc1ccccc1OP(C)(=O)Nc1c(C)cccc1C` (stereo not given), the activity change, negative = inhibition is inactive: -3.15%.

As for `CP(=O)(Nc1ccc(SC(F)(F)F)cc1)Oc1ccccc1` (stereo not given), the activity change, negative = inhibition was inactive: 17.9%.

For the compound `CCCOc1ccc(NP(C)(=O)Oc2ccc(Cl)cc2)cc1` (stereo not given), the activity change, negative = inhibition is inactive: 1.26%.

As for `CP(=S)(Nn1cnnc1)Oc1ccccc1` (stereo not given), the activity change, negative = inhibition was inactive: 12.3%.

Regarding `CP(=O)(Nc1ccccc1Br)Oc1ccccc1` (stereo not given), the activity change, negative = inhibition was inactive: 3.66%.

Regarding `COc1ccccc1OP(C)(=O)Nc1ccccc1` (stereo not given), the activity change, negative = inhibition was inactive: -7.69%.

Take `CP(=O)(Oc1ccccc1)OC(c1ccccc1)C(F)(F)F` (stereo not given): the activity change, negative = inhibition was inactive: -9.11%.

Turning to `CP(=O)(Nc1ccc(SC(F)(F)F)cc1)Oc1ccc(Cl)cc1` (stereo not given), the activity change, negative = inhibition is inactive: 1.04%.

`Cc1cccc(C)c1OP(C)(=O)Nc1ccc(SC(F)(F)F)cc1` (stereo not given): the activity change, negative = inhibition is inactive: -5.61%.

Regarding `Cc1cc(C)cc(OP(C)(=O)Nc2ccc(SC(F)(F)F)cc2)c1` (stereo not given), the activity change, negative = inhibition was inactive: 1.79%.

On to `CP(=O)(NC(=O)Nc1ccccc1)Oc1ccccc1` (stereo not given), for which the activity change, negative = inhibition is inactive: -3.21%.

Take `CCOC(=O)c1ccc(NP(C)(=O)Oc2ccc(OC)cc2)cc1` (stereo not given): the activity change, negative = inhibition is inactive: 6.58%.

On to `CCOP(C)(=S)SCC(=O)NC(C)C(=O)O` (stereo not given), for which the activity change, negative = inhibition was inactive: -2.28%.

`CP(=O)(Nc1ccccn1)Oc1ccc(Cl)cc1` (stereo not given): the activity change, negative = inhibition is inactive: 24.7%.

With `CCN(CC)CCCOC(=O)C(O)(c1ccccc1)c1ccccc1`, the activity change, negative = inhibition is inactive: -24.8%.

With `O=[N+]([O-])c1cc([N+](=O)[O-])c(Nc2cccnc2)c([N+](=O)[O-])c1`, the activity change, negative = inhibition is inactive: -29.8%.

Regarding `O=[N+]([O-])c1ccc2c(c1)C=Nc1ccccc1O2`, the activity change, negative = inhibition was inactive: -7.64%.

As for `Cc1cccc(C)c1OP(C)(N)=O` (stereo not given), the activity change, negative = inhibition is inactive: -13.2%.

Turning to `CC(C)(C)c1ccc(OP(C)(=O)Nc2ccc(SC(F)(F)F)cc2)cc1` (stereo not given), the activity change, negative = inhibition is inactive: -6.32%.

Turning to `Cc1ccc(NP(C)(=O)Oc2ccccc2)c(C)c1` (stereo not given), the activity change, negative = inhibition is inactive: -8.62%.

As to `COc1ccccc1OP(C)(=O)Nc1ccc(C)cc1` (stereo not given), the activity change, negative = inhibition was inactive: -7.14%.

For the compound `CCOC(=O)c1ccc(NP(C)(=O)Oc2ccccc2)cc1` (stereo not given), the activity change, negative = inhibition was inactive: 6.11%.

In the case of `Cc1cc(C)cc(OP(C)(N)=O)c1` (stereo not given), the activity change, negative = inhibition was inactive: -7.05%.

`COc1ccc(OP(C)(=O)Nc2cccc(F)c2)cc1` (stereo not given): the activity change, negative = inhibition was inactive: -7.06%.

Consider `COc1ccccc1OP(C)(=O)Nc1cc(Cl)ccc1C` (stereo not given), for which the activity change, negative = inhibition is inactive: 28.1%.

As for `Cc1cc(C)cc(OP(C)(=O)Nc2cccc(C(F)(F)F)c2)c1` (stereo not given), the activity change, negative = inhibition was inactive: -19.9%.

For `COc1ccccc1OP(C)(=O)Nc1ccc(C)c(C)c1` (stereo not given), the activity change, negative = inhibition was inactive: 0.729%.

For the compound `COc1ccc(OP(C)(=O)Nc2ccccc2Br)cc1` (stereo not given), the activity change, negative = inhibition was inactive: -17.7%.

As to `Cc1nc2ccc3ccccc3c2o1.O=[N+]([O-])c1cc([N+](=O)[O-])c(O)c([N+](=O)[O-])c1`, the activity change, negative = inhibition was inactive: -19.3%.

For the compound `CP(=O)(OCCOc1ccccc1)OCCOc1ccccc1`, the activity change, negative = inhibition is inactive: 12.1%.

Take `CP(=O)(Nc1ccc(Cl)cc1Cl)Oc1ccccc1` (stereo not given): the activity change, negative = inhibition is inactive: -8.32%.

For `COc1ccccc1OP(C)(=O)Nc1ccc(Br)cc1` (stereo not given), the activity change, negative = inhibition is inactive: 2.55%.

On to `COc1ccc(OP(C)(=O)Nc2ccccn2)cc1` (stereo not given), for which the activity change, negative = inhibition was inactive: -6.06%.

For the compound `CN(C)CCOC(=O)C(O)(c1ccccc1)C1CCCC1` (stereo not given), the activity change, negative = inhibition was inactive: -4.53%.

For `O=[N+]([O-])c1cc([N+](=O)[O-])c(Nc2ccccn2)c([N+](=O)[O-])c1`, the activity change, negative = inhibition was inactive: -14.1%.

For `Cc1c(NP(C)(=O)Oc2ccc(C(C)C)cc2)c(=O)n(-c2ccccc2)n1C` (stereo not given), the activity change, negative = inhibition was inactive: -20.2%.

Take `COc1ccccc1OP(C)(=O)Nc1ccc(C)cc1C` (stereo not given): the activity change, negative = inhibition was inactive: -8.05%.

Consider `CP(=O)(Nc1ccccn1)Oc1ccccc1` (stereo not given), for which the activity change, negative = inhibition is inactive: 7.62%.

As for `CCc1ccc(OP(C)(=O)O)cc1`, the activity change, negative = inhibition is inactive: 1.91%.

On to `COc1ccc(OP(C)(=O)Nc2ccc(Br)cc2)cc1` (stereo not given), for which the activity change, negative = inhibition was inactive: -2.56%.

Consider `CCN(CC)CC(O)COC(=O)C(O)(c1ccccc1)C1CCCCC1` (stereo not given), for which the activity change, negative = inhibition is inactive: -13.9%.

As to `O=C(OCCCN1CCCC1)C(O)(c1ccccc1)C1CCCCC1` (stereo not given), the activity change, negative = inhibition is inactive: 4.33%.

Take `COc1ccccc1OP(C)(=O)Nc1c(C)n(C)n(-c2ccccc2)c1=O` (stereo not given): the activity change, negative = inhibition is inactive: -7.66%.

As to `CCc1ccc(OP(C)(=O)Nc2cccnc2)cc1` (stereo not given), the activity change, negative = inhibition was inactive: 3.99%.

Regarding `CP(=O)(Oc1ccccc1)N1CCOC1=O` (stereo not given), the activity change, negative = inhibition was inactive: 0.208%.

Take `CC(C)(C)c1ccc(OP(C)(=O)O)cc1`: the activity change, negative = inhibition is inactive: -1.41%.

Regarding `COc1ccccc1OP(C)(=O)Nc1ccccc1Br` (stereo not given), the activity change, negative = inhibition was inactive: -20.1%.

For the compound `CP(=O)(Nc1ccc(Cl)cc1)Oc1ccc(F)cc1` (stereo not given), the activity change, negative = inhibition is inactive: 7.69%.

Take `CN(C)C(=O)c1c([N+](=O)[O-])cc([N+](=O)[O-])cc1[N+](=O)[O-]`: the activity change, negative = inhibition is inactive: 1.38%.

`CCOC(=O)c1ccc(NP(C)(=O)Oc2ccc(Cl)cc2)cc1` (stereo not given): the activity change, negative = inhibition is inactive: -8.12%.

Take `CP(=O)(OC12CC3CC(CC(C3)C1)C2)OC12CC3CC(CC(C3)C1)C2`: the activity change, negative = inhibition is inactive: 12.6%.

Consider `COc1ccc(OP(C)(=O)Nc2cccc(Br)c2)cc1` (stereo not given), for which the activity change, negative = inhibition was inactive: -9.29%.

In the case of `CN(C)CCOC(=O)C(O)(c1ccccc1)C1CCCCC1` (stereo not given), the activity change, negative = inhibition is inactive: 13.7%.

On to `COc1ccc(NP(C)(=O)Oc2ccccc2OC)cc1` (stereo not given), for which the activity change, negative = inhibition is inactive: 13.1%.

Take `O=[N+]([O-])c1ccc(OP2(=O)COCCO2)cc1` (stereo not given): the activity change, negative = inhibition was inactive: -10.3%.

As to `Cc1cc(-c2cccc3ccccc23)c(C)cn1.O=[N+]([O-])c1cc([N+](=O)[O-])c(O)c([N+](=O)[O-])c1`, the activity change, negative = inhibition was inactive: -18.9%.

In the case of `CP(=O)(Nc1ccc(SC(F)(F)F)cc1)Oc1ccc(F)cc1` (stereo not given), the activity change, negative = inhibition was inactive: -17.9%.

For the compound `CCOP(C)(=S)SCC(=O)NC(C)(CC)C(=O)O` (stereo not given), the activity change, negative = inhibition is inactive: -4.99%.

In the case of `CP(=O)(Nc1ccc2c(c1)OCCO2)Oc1ccccc1` (stereo not given), the activity change, negative = inhibition is inactive: -5.21%.

With `Cc1ccccc1NP(C)(=O)Nc1ccccc1C`, the activity change, negative = inhibition was inactive: 7.18%.

As to `CP(=O)(Nc1ccccc1F)Oc1ccccc1` (stereo not given), the activity change, negative = inhibition is inactive: -9.02%.

As to `CC(C)c1ccc(OP(C)(=O)Nc2ccc(SC(F)(F)F)cc2)cc1` (stereo not given), the activity change, negative = inhibition was inactive: 20.7%.

On to `O=C(OCCN1CCN(CCOCc2ccccc2)CC1)C(O)(c1ccccc1)c1ccccc1`, for which the activity change, negative = inhibition is inactive: 0.113%.

For `CCOC(=O)c1ccc(NP(C)(=O)Oc2ccc(F)cc2)cc1` (stereo not given), the activity change, negative = inhibition was inactive: -16.7%.

`COc1ccc(OP(C)(=O)Nc2ccc(SC(F)(F)F)cc2)cc1` (stereo not given): the activity change, negative = inhibition was inactive: 4.9%.

In the case of `CCN(CC)CCCOC(=O)C(O)(c1ccccc1)C1CCCCC1` (stereo not given), the activity change, negative = inhibition is inactive: -1.36%.

On to `CP(=O)(Nc1ccccc1)Oc1ccc(F)cc1` (stereo not given), for which the activity change, negative = inhibition is inactive: -25.2%.

Regarding `CCCCCOc1ccc(NP(C)(=O)Oc2ccc(Cl)cc2Cl)cc1` (stereo not given), the activity change, negative = inhibition is inactive: 10.4%.
